# Binding of CDR-mutated scFvs to a peptide of the spike HR2 region

From the AlphaSeq antibody data of Engelhart et al. 2022 (doi:10.1038/s41597-022-01779-4), copy in the FLAb collection.

Binding partner: SARS-CoV-2 spike HR2 peptide, sequence PDVDLGDISGINAS.

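The parent was found by panning a naive human phage display library on the peptide. AAYL50 was designed without a model: most single CDR substitutions and a random sample of double and triple ones. AlphaSeq pools MATa yeast showing the antibodies with MATalpha yeast showing the peptide. Binding brings cells together so that they mate, and sequencing counts the barcode pairs among the diploids. Scores were corrected for input abundance and mapped to Kd with protein pairs of known affinity run in the same pool. Mating was done three times.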

Each scFv is VH, the linker GGGGSGGGGSGGGGS, VL, as in the parent Ab-14, and differs from it in the CDRs of the light chain only.
VH: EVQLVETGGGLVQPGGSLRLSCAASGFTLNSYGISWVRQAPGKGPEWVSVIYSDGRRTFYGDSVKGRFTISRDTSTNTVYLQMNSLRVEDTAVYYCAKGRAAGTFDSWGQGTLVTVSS
VL: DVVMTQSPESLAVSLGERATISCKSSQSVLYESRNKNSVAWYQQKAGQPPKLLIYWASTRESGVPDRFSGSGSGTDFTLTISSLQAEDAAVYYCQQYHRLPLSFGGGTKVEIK

Positions count from residue 1 of the parent VL; S38I puts I in place of S.
Values are apparent Kd, the geometric mean of the replicates that gave a signal; lower means stronger binding.
A pair that was not seen in any replicate is written "nd"; this usually means weak binding, but a binder can also be missed.
Parent in this assay: reference entry 4.4 nM, copy in this library 48 nM.

changes	Kd	seen in	control signals
S38I/E61Y/L102G	nd	0 of 3	3 of 9
K24F/E32F/Q95F	nd	0 of 3	0 of 9
S38W/S58K/H98D	23 µM	1 of 3	5 of 9
L30M/A57G/T59P	nd	0 of 3	0 of 9
Q27A/S58V/R99M	420 nM	3 of 3	1 of 9
R34L/V39L/E61S	4.7 nM	3 of 3	0 of 9
Q27E/Y97N/R99A	nd	0 of 3	1 of 9
A57Q/E61M/L100V	91 nM	3 of 3	7 of 9
V39W/S62V/H98W	nd	0 of 3	1 of 9
A40D/Y97F/S103A	nd	0 of 3	1 of 9
S26G/N37T/L102F	37 nM	3 of 3	0 of 9
S26C/N37E/R60G	56 µM	2 of 3	5 of 9
S26C/S28E/L102A	570 nM	1 of 3	3 of 9
K36Q/N37T/Y97V	52 nM	3 of 3	5 of 9
S26T/S58R/S103G	2.5 µM	3 of 3	1 of 9
K24F/Y31P/R99S	40 nM	3 of 3	0 of 9
N35W/A40E	nd	0 of 3	0 of 9
V29H/R60L/H98N	nd	0 of 3	0 of 9
N35E/N37G/L100Y	470 µM	1 of 3	3 of 9
Y31W/V39D/Q95H	18 µM	3 of 3	4 of 9
K36T/E61A/P101V	2.6 mM	1 of 3	3 of 9
W56T/R60H/S103C	42 µM	1 of 3	4 of 9

The remaining entries, values ahead:

Kd	seen in	control signals	changes
1.1 µM	1 of 3	0 of 9	K24P/L100I/L102D
240 nM	3 of 3	3 of 9	K36H/W56C/E61V
nd	0 of 3	1 of 9	N37I/S38I/V39S
55 µM	2 of 3	5 of 9	Y31Q/K36W
nd	0 of 3	0 of 9	L30C/E61R/Q95G
13 µM	1 of 3	1 of 9	V29N/S33R/S38T
250 µM	3 of 3	3 of 9	S26C/W56S/R60Y
4.6 µM	3 of 3	1 of 9	K36H/S38M/S62C
120 nM	3 of 3	5 of 9	N35V/T59Q/R60K
nd	0 of 3	4 of 9	V29Y/S33A/V39A
nd	0 of 3	0 of 9	V39D/E61A/Q95V
nd	0 of 3	0 of 9	K24Y/N35V/L102R
3.7 nM	3 of 3	2 of 9	S33T/W56R/H98I
4.6 nM	3 of 3	0 of 9	V29Y/E32T/R34G
13 nM	3 of 3	0 of 9	S26E/N37D
nd	0 of 3	0 of 9	E32V/N37M/S103L
4.7 nM	3 of 3	3 of 9	Q27M/V29G/E32V
14 nM	3 of 3	0 of 9	Y31I/K36R/N37A
92 nM	3 of 3	2 of 9	L30F/Q96E/S103L
nd	0 of 3	0 of 9	A40K/W56P/E61K
1.5 nM	3 of 3	1 of 9	V29W/K36F/L100W
71 µM	1 of 3	0 of 9	S33E/L100P
28 nM	3 of 3	2 of 9	R34I/W56Y/R99M

The 4 strongest on average among those seen in every replicate, once more:

| changes | Kd | seen in | control signals |
|---|---|---|---|
| V29W/K36F/L100W | 1.5 nM | 3 of 3 | 1 of 9 |
| S33T/W56R/H98I | 3.7 nM | 3 of 3 | 2 of 9 |
| V29Y/E32T/R34G | 4.6 nM | 3 of 3 | 0 of 9 |
| R34L/V39L/E61S | 4.7 nM | 3 of 3 | 0 of 9 |

Background: pairings of library AAYL50 with three empty control strains gave a value in 18% of cases (median 15 µM, 5th percentile 970 nM). Values in that range, when seen in few replicates, are hard to tell from nonspecific mating. Also given: how often the same scFv was detected with the empty control strains.